# B1: Escherichia coli Hfq72 (containing amino acids 1–72) (domain or fragment, UniProt P0A6X3 1-72, looked up)
# chain: MAKGQSLQDPFLNALRRERVPVSIYLVNGIKLQGQIESFDQFVILLKNTVSQMVYKHAISTVVPSRPVSHHS
# notes: RNA chaperone Hfq, Escherichia coli, amino acids 1-72 (lacks most of the intrinsically disordered C-terminal tail); Homo-hexameric ring; in the crystal and in the AUC sample with 'AA0' it carried RNA; also called Hfq72 hexamer; Hfq72_(6); source: E. coli BL21(DE3), purified (Ni-Sepharose, SenP2 cleavage, second Ni purification, Superdex 200)
# Biological target: the molecule itself
# Assay: AUC; sedimentation velocity, Hfq72 with 'AA0' RNA, 33 µM, 20 °C, 45 000 rpm, AUC-buffer (0.25 M NaCl, 0.02 M Hepes pH 8.0, 0.005 M MgCl2, 2% Glycerol), absorbance at 254 nm
protein,measurement,value
B1,stoichiometry N,6

# From publication PMC5575007, “Intermolecular base stacking mediates RNA-RNA interaction in a crystal structure of the RNA chaperone Hfq” (Scientific Reports, 2017)
